Assay results as given in PMC5897267 (EJNMMI Research, 2018).

Sequences of proteins named here, by UniProt entry; tags and fusion partners are left off.
UniProt Q04609, whole entry: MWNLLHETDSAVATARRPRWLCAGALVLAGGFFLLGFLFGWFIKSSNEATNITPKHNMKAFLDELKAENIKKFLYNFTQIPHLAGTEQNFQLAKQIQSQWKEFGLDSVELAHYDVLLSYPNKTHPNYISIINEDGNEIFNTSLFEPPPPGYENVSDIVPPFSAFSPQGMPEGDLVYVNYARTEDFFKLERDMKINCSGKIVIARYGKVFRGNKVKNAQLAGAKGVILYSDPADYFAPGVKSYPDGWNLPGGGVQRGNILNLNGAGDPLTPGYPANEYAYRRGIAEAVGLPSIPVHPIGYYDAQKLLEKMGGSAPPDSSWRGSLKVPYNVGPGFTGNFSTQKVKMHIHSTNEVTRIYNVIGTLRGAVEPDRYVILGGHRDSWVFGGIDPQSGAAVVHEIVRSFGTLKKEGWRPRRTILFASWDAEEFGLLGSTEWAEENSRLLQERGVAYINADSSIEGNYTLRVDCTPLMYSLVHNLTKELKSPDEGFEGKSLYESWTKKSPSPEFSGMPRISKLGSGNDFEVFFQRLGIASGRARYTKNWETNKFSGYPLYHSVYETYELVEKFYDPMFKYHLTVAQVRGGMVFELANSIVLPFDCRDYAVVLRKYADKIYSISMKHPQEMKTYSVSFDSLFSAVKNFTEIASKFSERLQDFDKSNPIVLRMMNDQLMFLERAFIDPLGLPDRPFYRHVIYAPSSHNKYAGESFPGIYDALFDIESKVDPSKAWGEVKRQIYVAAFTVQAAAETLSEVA

Target: PSMA (Homo sapiens, UniProt Q04609)
Experiment: Competitive binding assay (IC50) on LNCaP cells with ([125I]I-BA)KuE as radioligand
Details: versus EuE-k-FBOA, respectively

PSMA affinity relative to EuE-k-FBOA, F-PSMA-1007 and F-DCFPyl: 4- to 12 fold
SMILES: O=C(O)CC[C@H](NC(=O)N[C@@H](CCC(=O)N[C@H](CCCCNC(=O)CCNC(=O)c1ccc(F)nc1)C(=O)O)C(=O)O)C(=O)O
